Measured values reported in patent publication US6130342A, “CYP2D fluorescent assay reagents” (Gentest Corporation, priority 1999, dated 2000).

Chains of the proteins cited; added tags and fusions are not shown.
UniProt P10635, whole entry: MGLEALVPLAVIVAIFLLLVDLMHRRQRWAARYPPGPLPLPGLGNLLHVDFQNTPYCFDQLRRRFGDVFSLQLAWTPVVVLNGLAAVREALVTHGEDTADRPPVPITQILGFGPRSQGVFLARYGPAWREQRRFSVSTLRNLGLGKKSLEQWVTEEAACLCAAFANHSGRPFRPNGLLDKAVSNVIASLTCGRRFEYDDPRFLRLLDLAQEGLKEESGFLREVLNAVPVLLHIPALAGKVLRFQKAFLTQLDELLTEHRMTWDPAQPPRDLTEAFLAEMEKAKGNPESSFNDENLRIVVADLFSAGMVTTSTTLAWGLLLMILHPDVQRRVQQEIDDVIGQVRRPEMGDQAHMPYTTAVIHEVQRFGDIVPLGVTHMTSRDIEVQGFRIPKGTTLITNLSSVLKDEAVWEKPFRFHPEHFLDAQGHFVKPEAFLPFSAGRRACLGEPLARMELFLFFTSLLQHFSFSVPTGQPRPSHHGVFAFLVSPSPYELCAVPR

Molecular target: CYP2D6 (Homo sapiens, UniProt P10635)
Experiment: High throughput CYP2D6 inhibition screen
Conditions: series of CYP2D6 selective inhibitors; CEC vs. compounds Ia and Ib as substrate

correlation of inhibitor IC50 values with those using CEC	Compound
highly correlated	CC[N+](C)(CC)CCc1c(C)c2ccc(OC)cc2oc1=O [Compound Ia, 3-[2-(N,N-diethyl-N-methylammonium)ethyl]-7-methoxy-4-methylcoumarin]
highly correlated	CC[N+](C)(CC)CCc1c(C(F)(F)F)c2ccc(OC)cc2oc1=O [Compound Ib, 3-[2-(N,N-diethyl-N-methylammonium)ethyl]-7-methoxy-4-trifluoromethylcoumarin iodide]
